The record followed here is patent publication US9737535B2, “Methods for treating cancer using TOR kinase inhibitor combination therapy comprising administering substituted pyrazino[2,3-b]pyrazines” (Signal Pharmaceuticals, LLC, priority 2014, dated 2017).

Structures can show the parent of a compound that is named as a salt. Where two headings read alike, the source gives them in different places.

Holding throughout (experiment): Anti-proliferation assay (ATPLite), Chalice synergy score
On the technique in general: In ATP-based viability assays light output follows the ATP content of the culture.

Experiment [1] has as its system HCC-1806. The format is cell-based. An excerpt:
(§1) Cells were thawed from a liquid nitrogen preserved state.
(§2) The calculation for synergy score is provided below.
(§3) If T≧V0:100*[1−(T−V0)/(V−V0)]

Experiment [2] deals with HCC70. The format is cell-based.
Text: as §1, §2, §3

Experiment [3] has as its system HCC-1937. The format is cell-based.
Text: as §1, §2, §3

Experiment [4] concerns MCF7. The format is cell-based.
Text: as §1, §2, §3

Experiment [5] has as its system BT-474. The format is cell-based.
Text: as §1, §2, §3

Experiment [6] deals with MDA-MB-231. The format is cell-based.
Text: as §1, §2, §3

The test system of experiment [7] is MDA-MB-436. The format is cell-based.
Text: as §1, §2, §3

Experiment [8] has as its system Hs-578-T. The format is cell-based.
Text: as §1, §2, §3

The test system of experiment [9] is HCC-1187. The format is cell-based. Set-up: scale not given here.
Text: as §1, §2, §3

Experiment [10] relates to BT-20. The format is cell-based. Also on record: scale not given here.
Text: as §1, §2, §3

Experiment [11] concerns MDA-MB-157. The format is cell-based.
Text: as §1, §2, §3

Experiment [12] has as its system BT-549. The format is cell-based.
Text: as §1, §2, §3

In experiment [13] the test system is MDA-MB-468. The format is cell-based.
Text: as §1, §2, §3

Experiment [14] relates to HCC-1500. The format is cell-based. Also on record: scale not given here.
Text: as §1, §2, §3

Experiment [15] relates to MDA-MB-453.
Experiment [16] concerns HCC-1428. The format is cell-based.
Text: as §1, §2, §3

Setting [17] is: Compound 1 in combination with second active agent, MDA-MB-231, mean self-cross + 2σ threshold 2.61.

Regarding `N[C@@H](Cc1ccc(N(CCCl)CCCl)cc1)C(=O)O` [Melphalan], the Synergy score in experiment [1] amounted to 0.24; in [2], 1.34; in [3], 1.13; in experiment [4] it was 0.24; in [5], 0.64; in experiment [6] it was 0.54. Further, the Synergy score in experiment [7] amounted to 1.61; in experiment [8], 1.83; in [9], 3.43; in experiment [10], 0.16.

On to `CS(=O)(=O)CCNCc1ccc(-c2ccc3ncnc(Nc4ccc(OCc5cccc(F)c5)c(Cl)c4)c3c2)o1` [Lapatinib], for which the Synergy score in experiment [1] is 5.01; in experiment [2], 8.14; in experiment [3] it was 3.59; in [11], 1.54; in experiment [12], 0.98; in experiment [9], 2.35.

`O=C(/C=C/c1cccnc1)NCCCCC1CCN(C(=O)c2ccccc2)CC1` [FK-866]: in experiment [11] (Compound 1 in combination with second active agent, MDA-MB-157, mean self-cross + 2σ threshold 4.68), the Synergy score came out at 1.43.

For the molecule `O=C(Nc1cccc(Nc2ncc(Br)c(NCCc3c[nH]cn3)n2)c1)N1CCCC1` [BX-912], the Synergy score in experiment [6] (setting [17]) was determined as 2.21.

Regarding `C#Cc1cccc(Nc2ncnc3cc(OCCOC)c(OCCOC)cc23)c1` [Erlotinib Hydrochloride], the Synergy score in experiment [3] came to 4.10; in experiment [11] it was 2.36; in experiment [8], 2.11; in experiment [12], 1.78; in experiment [13] it was 6.38; in experiment [10], 9.18.

As to `CCN(CC)CCNC(=O)c1c(C)[nH]c(/C=C2\C(=O)Nc3ccc(F)cc32)c1C` [Sunitinib Malate], the Synergy score was found to be 2.39 in [2]; 0.28 in experiment [3]; 0.47 in experiment [5]; 0.92 in experiment [7]; 0.20 in experiment [14].

Take Bleomycin Sulfate: the Synergy score was determined as 0.62 in experiment [1]; 1.43 in [2]; 3.57 in experiment [7]; 6.00 in experiment [11]; 4.70 in experiment [13]; 1.46 in experiment [10].

For `CCCCCOC(=O)Nc1nc(=O)n([C@@H]2O[C@H](C)[C@@H](O)[C@H]2O)cc1F` [Capecitabine], the Synergy score came to 0.51 in experiment [1]; 0.77 in [5]; 0.12 in experiment [7]; 0.17 in [12]; 0.37 in experiment [13]; 0.48 in [15]. Besides, the Synergy score in [14] is on record as 1.82.

For the molecule `CN(C)/N=N/c1[nH]cnc1C(N)=O` [Dacarbazine], the Synergy score in [4] worked out at 0.12; in experiment [5], 0.71; in experiment [8], 0.88; in [13], 0.23; in experiment [14], 1.21.

In the case of `O=c1[nH]cc(F)c(=O)[nH]1` [Fluorouracil], the Synergy score is recorded as 0.85 in experiment [1]; 0.63 in experiment [3]; 0.35 in experiment [6]; 1.50 in [8]; 0.60 in [13].

For `CN(Cc1cnc2nc(N)nc(N)c2n1)c1ccc(C(=O)N[C@@H](CCC(=O)O)C(=O)O)cc1` [Methotrexate], the Synergy score in [2] amounted to 1.76; in [3], 0.69; in experiment [4], 0.57; in experiment [7], 0.22; in [11], 1.68; in experiment [16], 0.27. In addition, the Synergy score in experiment [12] came to 0.73; in [13], 1.53; in experiment [9] it was 1.94; in experiment [14], 1.92.

As to `NS(=O)(=O)OC[C@@H]1C[C@@H](n2ccc3c(N[C@H]4CCc5ccccc54)ncnc32)C[C@@H]1O` [MLN-4924], the Synergy score in experiment [6] (setting [17]) was 2.34; in [7] (Compound 1 in combination with second active agent, MDA-MB-436, mean self-cross + 2σ threshold 1.91), 1.43.

`CC(C)C[C@H](NC(=O)[C@H](Cc1ccccc1)NC(=O)c1cnccn1)B(O)O` [Bortezomib]: the Synergy score in experiment [1] is reported as 5.67; in experiment [4], 1.77; in [5], 0.58; in [6], 1.28; in experiment [7] it was 3.90; in experiment [16] it was 1.46. The Synergy score in experiment [8] is on record as 2.20; in experiment [12], 2.66; in [13], 4.83; in experiment [9] it was 3.01; in [10], 2.93; in experiment [14], 1.37.

In the case of `CNC(=O)c1cc(Oc2ccc(NC(=O)Nc3ccc(Cl)c(C(F)(F)F)c3)cc2)ccn1` [Sorafenib], the Synergy score in [9] stood at 0.64.
